The results in this text go back to US11970576B2, “Beta-peptido sugar-copolymer” (NANYANG TECHNOLOGICAL UNIVERSITY, priority 2017, dated 2024).

Converted amounts (≈) assume the structure as drawn.

Holding throughout (format): cell-based
In one experiment the test system is E. coli (ATCC 8739). Here is the method: (§1) Antimicrobial activity of block-like copolymers PDGu(x)-b-PBLK(y) against a panel of bacteria including both Gram-positive (S. aureus and B. subtilis) and Gram-negative (E. coli) in terms of minimal inhibition concentration (MIC) were tested. […] The activity was decreased with the increase of sugar ratio. This is reasonable when considering the killing domains became less.

A further experiment relates to S. aureus (ATCC 29213). As for the experimental part:
as §1

The test system of experiment [1] is methicillin-resistant S. aureus (BAA-40). As for the experimental part: as §1

As to `CC[C@H](C)[C@H](NC(=O)CN)C(=O)NCC(=O)N[C@@H](C)C(=O)N[C@H](C(=O)N[C@@H](CC(C)C)C(=O)N[C@@H](CCCCN)C(=O)N[C@H](C(=O)N[C@@H](CC(C)C)C(=O)N[C@H](C(=O)N[C@H](C(=O)NCC(=O)N[C@@H](CC(C)C)C(=O)N1CCC[C@H]1C(=O)N[C@@H](C)C(=O)N[C@@H](CC(C)C)C(=O)N[C@H](C(=O)N[C@@H](CO)C(=O)N[C@@H](Cc1c[nH]c2ccccc12)C(=O)N[C@H](C(=O)N[C@@H](CCCCN)C(=O)N[C@@H](CCCNC(=N)N)C(=O)N[C@@H](CCCCN)C(=O)N[C@@H](CCCNC(=N)N)C(=O)N[C@@H](CCC(N)=O)C(=O)N[C@@H](CCC(N)=O)C(N)=O)[C@@H](C)CC)[C@@H](C)CC)[C@@H](C)O)[C@@H](C)O)C(C)C)C(C)C` [Melittin], the “MIC E. coli” value against E. coli (ATCC 8739) stood at 32 µg/mL (≈ 11.2 µM). Besides, in the experiment with S. aureus (ATCC 29213), the “MIC SA 29213” value was determined as 8 µg/mL (≈ 2.81 µM). The “MIC MRSA” value in experiment [1] stood at 8 µg/mL (≈ 2.81 µM).
